System: TGx-DDI biomarker genes in TK6 cells
Experiment: TGx-DDI transcriptomic biomarker classification by microarray
Assay type: cell-based, human
Settings: reproducibility check with training-set agents, selected concentration

## oxamflatin
  clustering by 2DC using the TGx-DDI biomarker: clustered with the non-DNA-damaging agents

Reference: patent US20180251824A1, “IN VITRO GENOTOXICITY ASSAY USING A TRANSCRIPTOMIC BIOMARKER WITH DIRECT DIGITAL COUNTING” (GEORGETOWN UNIVERSITY, priority 2017, published 2018)
